The source of these data is patent publication US11312701B2, “Formylpyridine derivative having FGFR4 inhibitory activity, preparation method therefor and use thereof” (Abbisko Therapeutics Co., Ltd., priority 2017, dated 2022).

For the assay, the system named is Huh7 hepatocellular carcinoma cells. In words: Cell Titer Glo (CTG) cell proliferation experiment. In kind it is cell-based. Particulars: read-out: Cell activity HuH-7 EC50, HuH-7 cells, 3 days, concentration leading to half maximal growth inhibition. For orientation: ATP-based viability assays read luminescence as a measure of living cells.

On to `COCCNc1cc(NC(=O)N(C)c2ccc(CN3CCN(C)CC3=O)c(C=O)n2)ncc1C#N`, for which the EC50 was determined as 238 nM.
